Values quoted from earlier work, collected in patent US20130116267A1 (priority 2010, published 2013).

Amino acid sequences for entries named in this document (tags omitted). A change or cut given only in a name is not applied to a line headed by its entry.
UniProt O00329: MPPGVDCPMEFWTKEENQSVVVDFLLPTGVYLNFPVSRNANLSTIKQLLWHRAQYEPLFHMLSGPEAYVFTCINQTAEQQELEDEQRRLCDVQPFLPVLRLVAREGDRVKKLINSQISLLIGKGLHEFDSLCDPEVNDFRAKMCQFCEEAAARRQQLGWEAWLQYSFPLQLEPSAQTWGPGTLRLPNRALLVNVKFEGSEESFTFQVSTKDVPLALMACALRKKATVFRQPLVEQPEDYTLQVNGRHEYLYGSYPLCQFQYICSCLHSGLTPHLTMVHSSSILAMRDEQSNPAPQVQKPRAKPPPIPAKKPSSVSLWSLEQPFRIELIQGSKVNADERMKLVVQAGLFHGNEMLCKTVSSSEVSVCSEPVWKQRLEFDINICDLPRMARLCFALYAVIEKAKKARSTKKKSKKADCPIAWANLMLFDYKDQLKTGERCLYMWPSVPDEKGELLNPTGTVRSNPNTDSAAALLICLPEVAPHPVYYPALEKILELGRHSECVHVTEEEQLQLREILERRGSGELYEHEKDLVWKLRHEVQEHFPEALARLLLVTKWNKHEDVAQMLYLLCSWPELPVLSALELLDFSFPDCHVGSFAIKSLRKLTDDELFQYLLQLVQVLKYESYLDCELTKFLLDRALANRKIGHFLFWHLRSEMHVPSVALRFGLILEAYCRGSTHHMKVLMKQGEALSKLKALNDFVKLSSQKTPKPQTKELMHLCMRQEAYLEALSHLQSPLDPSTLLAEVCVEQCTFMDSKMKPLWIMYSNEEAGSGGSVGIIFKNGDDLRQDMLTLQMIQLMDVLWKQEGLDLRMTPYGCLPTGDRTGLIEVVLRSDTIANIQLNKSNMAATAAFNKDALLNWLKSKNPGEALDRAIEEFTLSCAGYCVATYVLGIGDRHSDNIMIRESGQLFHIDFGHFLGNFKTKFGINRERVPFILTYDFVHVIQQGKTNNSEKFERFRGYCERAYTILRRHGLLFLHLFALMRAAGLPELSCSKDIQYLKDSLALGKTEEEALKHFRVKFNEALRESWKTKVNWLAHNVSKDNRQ

Biological target: PI3K p110 delta (Homo sapiens, UniProt O00329)
Conditions: cited from earlier work

SMILES: Cn1c(=O)c2[nH]cnc2n(C)c1=O [Theophylline, theophylline]
- IC50: 75 µM
